The chains behind the UniProt entries cited, without tags or fusion partners. Where a name states a change or a piece, a line headed by the entry shows the natural chain unless it says otherwise.
UniProt P0DOV5: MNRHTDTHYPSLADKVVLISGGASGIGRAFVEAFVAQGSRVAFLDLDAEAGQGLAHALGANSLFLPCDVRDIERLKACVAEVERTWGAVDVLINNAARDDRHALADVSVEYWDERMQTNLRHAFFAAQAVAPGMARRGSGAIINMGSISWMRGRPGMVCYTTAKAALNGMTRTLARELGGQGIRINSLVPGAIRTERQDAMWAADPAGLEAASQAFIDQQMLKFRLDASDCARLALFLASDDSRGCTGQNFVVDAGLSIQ

According to paper PMC12133307, “Structure, kinetics, and mechanism of Pseudomonas putida sulfoquinovose dehydrogenase, the first enzyme in the sulfoglycolytic Entner-Doudoroff pathway” (Biochemical Journal, 2025):

Molecular target: T1, PpSQDH (P. putida SQ dehydrogenase; PpSQ1_00090) (Pseudomonas putida, UniProt P0DOV5)
T1 construct: gene PpSQ1_00405
Settings: 5 mM ligand, 50 mM Tris pH 7.5, 300 mM NaCl

`NC(=O)c1ccc[n+]([C@@H]2O[C@H](COP(=O)(O)OP(=O)(O)OC[C@H]3O[C@@H](n4cnc5c(N)ncnc54)[C@H](OP(=O)(O)O)[C@@H]3O)[C@@H](O)[C@H]2O)c1` [NADP^+] gave a Tm decrease of -4 °C.
